Values quoted from earlier work as cited in paper PMC4869912.
pKd: −log10 of the molar value.

Target: MLCK peptide (MLCKp) 15-aa CaM-binding domain fragment (UniProt Q15746)

- pKd: 11.22
Substance: Calmodulin (from UniProt P0DP23)
